Reference: patent US6498163B1, “Pyrido[2,3-D]pyrimidines and 4-aminopyrimidines as inhibitors of cellular proliferation” (Warner-Lambert Company, priority 1997, dated 2002)

Legend:
[1] = target: cdk2/cyclinE (Homo sapiens, UniProt P24941); test: Cyclin-dependent kinase assay cdk2/cyclinE; type: biochemical; conditions: Table 1; read-out: cdk2/E IC50
[2] = target: cdk2/cyclinA (Homo sapiens, UniProt P24941); test: Cyclin-dependent kinase assay cdk2/cyclinA; type: biochemical; conditions: Table 1

| Compound | IC50 [1] [nM] | IC50 [2] [µM] |
| --- | --- | --- |
| O=c1ccc2cnc(Nc3ccccc3)nc2n1CCCOCc1ccccc1 [Example 38, 8-(3-Benzyloxypropyl)-2-phenylamino-8H-pyrido[2,3-d]pyrimidin-7-one] | 1750 | 13.5 |
| CN(C)c1ccc(Nc2ncc3ccc(=O)n(C4CCCCC4)c3n2)cc1 [Example 147, 8-Cyclohexyl-2-(4-dimethylamino-phenylamino)-8H-pyrido[2,3-d]pyrimidin-7-one] | 81 | 0.012 |
